These are literature values, as cited in patent US20240400784A1, “Method for Screening Solvent for Extracting Polyvinyl Chloride, Method for Recycling Waste, Recycled Polyvinyl Chloride, and Composition” (LG Chem, Ltd., priority 2021, published 2024).

The conditions of the data set: value in Table 1 of Document #1; swollen PVC and solvent volume based on PVC volume.

1-Butanol: the PVC swelling ratio is 1.
